Protein sequences, listed by entry. Tags and fused reporters are not part of them. Residues count along the entry.
UniProt P05106, 27-788: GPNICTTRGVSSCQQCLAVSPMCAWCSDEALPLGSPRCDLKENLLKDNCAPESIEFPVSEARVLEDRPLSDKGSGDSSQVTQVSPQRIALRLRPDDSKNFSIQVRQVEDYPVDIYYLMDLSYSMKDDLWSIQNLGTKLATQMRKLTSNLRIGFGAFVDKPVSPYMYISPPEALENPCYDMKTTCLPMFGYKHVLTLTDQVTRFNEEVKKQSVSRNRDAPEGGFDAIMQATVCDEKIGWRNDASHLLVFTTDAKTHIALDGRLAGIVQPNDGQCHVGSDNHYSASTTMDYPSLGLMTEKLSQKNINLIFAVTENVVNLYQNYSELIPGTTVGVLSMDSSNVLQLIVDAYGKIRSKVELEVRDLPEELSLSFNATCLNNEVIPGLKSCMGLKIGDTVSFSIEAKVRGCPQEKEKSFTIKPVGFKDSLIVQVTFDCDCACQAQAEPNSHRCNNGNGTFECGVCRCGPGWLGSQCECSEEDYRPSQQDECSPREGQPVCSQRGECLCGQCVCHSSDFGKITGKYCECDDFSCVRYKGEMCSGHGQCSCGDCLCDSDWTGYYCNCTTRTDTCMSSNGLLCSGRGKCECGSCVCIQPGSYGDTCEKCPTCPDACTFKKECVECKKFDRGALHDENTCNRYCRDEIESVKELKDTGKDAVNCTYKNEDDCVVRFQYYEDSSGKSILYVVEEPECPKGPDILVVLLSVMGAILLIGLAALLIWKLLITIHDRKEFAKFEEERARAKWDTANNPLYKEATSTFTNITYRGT
UniProt P06756, 891-1048 partner limits assumed: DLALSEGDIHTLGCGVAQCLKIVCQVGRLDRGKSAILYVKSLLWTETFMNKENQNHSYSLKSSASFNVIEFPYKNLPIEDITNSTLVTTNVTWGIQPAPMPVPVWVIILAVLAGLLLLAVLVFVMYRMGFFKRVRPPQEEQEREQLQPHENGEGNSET
UniProt P06756, 31-889 limits assumed: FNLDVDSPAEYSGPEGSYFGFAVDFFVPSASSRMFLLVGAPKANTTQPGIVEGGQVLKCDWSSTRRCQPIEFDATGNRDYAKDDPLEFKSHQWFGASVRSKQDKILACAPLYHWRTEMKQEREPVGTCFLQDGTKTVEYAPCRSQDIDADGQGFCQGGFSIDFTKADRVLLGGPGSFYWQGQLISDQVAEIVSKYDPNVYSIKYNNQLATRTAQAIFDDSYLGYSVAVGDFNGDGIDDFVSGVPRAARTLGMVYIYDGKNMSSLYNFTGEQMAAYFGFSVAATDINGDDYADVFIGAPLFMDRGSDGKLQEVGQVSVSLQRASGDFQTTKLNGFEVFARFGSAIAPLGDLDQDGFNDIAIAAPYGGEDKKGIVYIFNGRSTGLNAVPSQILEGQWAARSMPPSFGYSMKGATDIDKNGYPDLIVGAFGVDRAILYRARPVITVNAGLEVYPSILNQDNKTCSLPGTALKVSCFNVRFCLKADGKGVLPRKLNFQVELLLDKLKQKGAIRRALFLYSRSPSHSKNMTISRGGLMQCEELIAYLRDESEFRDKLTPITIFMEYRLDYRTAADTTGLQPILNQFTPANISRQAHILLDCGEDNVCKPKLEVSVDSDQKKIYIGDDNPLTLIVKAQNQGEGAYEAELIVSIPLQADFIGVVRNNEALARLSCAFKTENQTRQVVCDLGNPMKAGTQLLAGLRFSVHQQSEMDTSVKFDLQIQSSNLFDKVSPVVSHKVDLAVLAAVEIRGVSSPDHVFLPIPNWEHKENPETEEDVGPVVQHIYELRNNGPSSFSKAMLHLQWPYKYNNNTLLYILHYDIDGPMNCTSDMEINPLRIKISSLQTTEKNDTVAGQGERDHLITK

In article PMC3397393 (Chemical Communications (Cambridge, England), 2012):

Biological target: integrin αvβ3 (U87MG human glioblastoma cells) (Homo sapiens, UniProt P05106+P06756)
Experiment: Flow cytometry analysis of FITC conjugates in U87MG cells
Format: cell-based
Settings: 5 μg/mL; blocking with 2 μM of unconjugated c(RGDyK)

- uptake in U87MG cells after blocking the receptor: significantly reduced
Substance: FITC-c(RGDyK) (head to tail)
